{"sequences": {"note": "Amino acid sequences for entries named in this document (tags omitted). A change or cut given only in a name is not applied to a line headed by its entry.", "UniProt P11712, whole entry": "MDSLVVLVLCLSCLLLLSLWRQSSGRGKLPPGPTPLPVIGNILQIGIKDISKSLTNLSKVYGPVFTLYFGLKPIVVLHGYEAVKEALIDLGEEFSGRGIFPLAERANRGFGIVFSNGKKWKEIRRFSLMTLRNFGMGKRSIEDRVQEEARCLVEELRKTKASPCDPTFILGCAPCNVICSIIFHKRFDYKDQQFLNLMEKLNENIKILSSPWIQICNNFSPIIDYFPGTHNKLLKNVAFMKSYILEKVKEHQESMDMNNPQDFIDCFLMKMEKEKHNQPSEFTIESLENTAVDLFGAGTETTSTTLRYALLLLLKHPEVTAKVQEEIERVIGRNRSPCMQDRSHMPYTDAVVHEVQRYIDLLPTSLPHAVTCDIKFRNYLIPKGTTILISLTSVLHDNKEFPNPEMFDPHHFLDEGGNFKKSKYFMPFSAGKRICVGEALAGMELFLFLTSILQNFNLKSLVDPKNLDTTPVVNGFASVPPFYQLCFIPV", "UniProt P33261, whole entry": "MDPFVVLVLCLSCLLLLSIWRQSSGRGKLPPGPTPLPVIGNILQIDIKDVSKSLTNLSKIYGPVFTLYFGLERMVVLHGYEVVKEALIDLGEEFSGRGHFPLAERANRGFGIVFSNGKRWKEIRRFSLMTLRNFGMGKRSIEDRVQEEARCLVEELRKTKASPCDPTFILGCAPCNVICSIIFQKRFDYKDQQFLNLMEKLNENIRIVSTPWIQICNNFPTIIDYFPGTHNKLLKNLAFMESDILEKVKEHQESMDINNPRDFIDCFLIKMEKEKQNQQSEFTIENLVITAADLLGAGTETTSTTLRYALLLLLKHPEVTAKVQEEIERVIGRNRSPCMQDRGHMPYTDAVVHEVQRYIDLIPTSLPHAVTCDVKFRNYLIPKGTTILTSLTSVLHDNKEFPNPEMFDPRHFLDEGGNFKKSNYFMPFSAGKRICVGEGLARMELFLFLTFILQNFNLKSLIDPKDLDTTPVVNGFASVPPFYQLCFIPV", "UniProt Q8VNN2, whole entry": "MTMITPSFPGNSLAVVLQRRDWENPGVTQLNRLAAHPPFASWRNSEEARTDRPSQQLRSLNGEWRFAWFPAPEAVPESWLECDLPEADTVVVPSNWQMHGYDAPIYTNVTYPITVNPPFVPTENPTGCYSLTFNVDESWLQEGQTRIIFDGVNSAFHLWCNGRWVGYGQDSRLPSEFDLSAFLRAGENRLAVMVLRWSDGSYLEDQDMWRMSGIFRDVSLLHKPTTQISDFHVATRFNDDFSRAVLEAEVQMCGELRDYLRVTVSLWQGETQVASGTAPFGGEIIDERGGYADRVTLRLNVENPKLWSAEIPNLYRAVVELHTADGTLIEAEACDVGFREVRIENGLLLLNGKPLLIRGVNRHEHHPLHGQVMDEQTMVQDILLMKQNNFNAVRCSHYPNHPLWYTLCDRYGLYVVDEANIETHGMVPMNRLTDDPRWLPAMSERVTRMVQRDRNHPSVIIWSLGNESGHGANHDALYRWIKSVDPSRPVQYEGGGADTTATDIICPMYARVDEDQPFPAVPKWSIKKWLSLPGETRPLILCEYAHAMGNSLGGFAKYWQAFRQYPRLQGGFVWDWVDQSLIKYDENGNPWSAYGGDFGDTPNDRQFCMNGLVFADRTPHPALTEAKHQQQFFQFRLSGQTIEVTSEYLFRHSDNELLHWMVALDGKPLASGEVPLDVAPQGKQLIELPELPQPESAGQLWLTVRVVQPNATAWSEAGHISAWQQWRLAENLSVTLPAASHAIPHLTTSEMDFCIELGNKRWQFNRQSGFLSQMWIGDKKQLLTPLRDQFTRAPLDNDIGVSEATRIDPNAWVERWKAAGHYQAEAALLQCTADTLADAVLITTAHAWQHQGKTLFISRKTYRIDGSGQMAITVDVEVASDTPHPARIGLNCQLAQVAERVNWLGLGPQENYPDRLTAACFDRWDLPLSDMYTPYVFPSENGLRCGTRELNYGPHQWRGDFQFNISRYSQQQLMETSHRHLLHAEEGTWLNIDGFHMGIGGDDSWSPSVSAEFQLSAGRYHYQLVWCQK", "UniProt Q9NZ08": "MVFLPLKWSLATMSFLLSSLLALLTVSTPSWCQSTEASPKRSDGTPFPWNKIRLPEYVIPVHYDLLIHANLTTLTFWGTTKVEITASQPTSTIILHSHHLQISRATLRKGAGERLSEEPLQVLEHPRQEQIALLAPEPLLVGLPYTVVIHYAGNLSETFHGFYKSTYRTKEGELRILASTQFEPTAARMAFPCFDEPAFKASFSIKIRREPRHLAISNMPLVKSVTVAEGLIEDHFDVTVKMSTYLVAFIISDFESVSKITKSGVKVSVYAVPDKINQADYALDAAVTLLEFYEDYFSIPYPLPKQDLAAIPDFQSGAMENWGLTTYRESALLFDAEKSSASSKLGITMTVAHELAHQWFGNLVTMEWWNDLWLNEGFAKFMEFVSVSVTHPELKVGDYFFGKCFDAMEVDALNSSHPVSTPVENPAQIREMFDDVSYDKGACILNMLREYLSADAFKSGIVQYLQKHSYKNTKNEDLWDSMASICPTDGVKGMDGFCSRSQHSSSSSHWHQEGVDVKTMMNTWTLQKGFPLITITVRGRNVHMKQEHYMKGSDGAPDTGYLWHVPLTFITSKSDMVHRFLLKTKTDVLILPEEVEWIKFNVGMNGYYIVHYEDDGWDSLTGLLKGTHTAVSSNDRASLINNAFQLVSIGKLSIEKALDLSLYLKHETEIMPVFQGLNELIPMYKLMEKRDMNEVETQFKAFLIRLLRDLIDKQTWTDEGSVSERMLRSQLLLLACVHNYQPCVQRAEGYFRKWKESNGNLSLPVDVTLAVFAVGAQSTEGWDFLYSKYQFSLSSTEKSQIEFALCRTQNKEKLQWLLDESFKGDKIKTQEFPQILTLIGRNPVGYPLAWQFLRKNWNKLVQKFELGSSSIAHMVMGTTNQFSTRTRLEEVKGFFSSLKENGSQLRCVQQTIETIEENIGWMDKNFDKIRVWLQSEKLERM"}, "source": "ChEMBL document CHEMBL1201862", "about": "“PubChem BioAssay data set” (2004)", "key": {"Cytochrome P450 2C9": {"target": "Cytochrome P450 2C9 (Homo sapiens, UniProt P11712)"}, "Cytochrome P450 2C19": {"target": "Cytochrome P450 2C19 (Homo sapiens, UniProt P33261)", "test": "Cytochrome panel assay with activity outcomes. Panel member name: p450-cyp2c19 Compounds with AC50 equal or less than 10 uM are considered active", "format": "functional"}, "Protein RecA": {"target": "T1, Protein RecA (Mycobacterium tuberculosis, UniProt P9WHJ3)", "T1 sequence (P9WHJ3 whole entry)": "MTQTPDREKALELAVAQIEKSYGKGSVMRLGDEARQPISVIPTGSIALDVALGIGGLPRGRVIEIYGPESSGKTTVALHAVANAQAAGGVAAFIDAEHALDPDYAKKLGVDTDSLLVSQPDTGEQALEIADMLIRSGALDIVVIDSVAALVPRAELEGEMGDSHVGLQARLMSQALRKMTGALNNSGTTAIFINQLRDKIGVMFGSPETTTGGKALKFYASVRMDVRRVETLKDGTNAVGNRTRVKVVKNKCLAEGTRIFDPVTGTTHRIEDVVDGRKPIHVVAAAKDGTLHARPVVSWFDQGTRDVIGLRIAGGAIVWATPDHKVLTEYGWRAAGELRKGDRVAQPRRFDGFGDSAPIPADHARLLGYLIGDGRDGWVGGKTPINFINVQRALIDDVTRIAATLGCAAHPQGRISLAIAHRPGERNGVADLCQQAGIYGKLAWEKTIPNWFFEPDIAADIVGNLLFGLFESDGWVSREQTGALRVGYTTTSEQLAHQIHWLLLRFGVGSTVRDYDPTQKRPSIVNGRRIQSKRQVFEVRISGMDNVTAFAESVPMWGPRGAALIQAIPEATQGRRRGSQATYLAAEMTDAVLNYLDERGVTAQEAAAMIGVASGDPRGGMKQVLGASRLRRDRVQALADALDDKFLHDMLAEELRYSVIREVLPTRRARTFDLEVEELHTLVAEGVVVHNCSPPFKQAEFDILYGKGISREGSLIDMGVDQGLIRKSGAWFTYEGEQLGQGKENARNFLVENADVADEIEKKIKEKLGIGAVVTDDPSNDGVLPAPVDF", "test": "Fluorescence Cell-Free Homogeneous Dose Retest to Identify Inhibitors of RecA-Intein Splicing Activity. [Related pubchem assays (depositor defined):AID2097, AID2223, AID489010, AID492950]", "format": "functional"}, "Beta-galactosidase": {"target": "Beta-galactosidase (Escherichia coli, UniProt Q8VNN2)", "test": "PubChem AID 485352", "format": "functional"}, "[1]": {"target": "Type-1 angiotensin II receptor (Homo sapiens, UniProt P30556)", "test": "AT1 receptor antagonists, dose response, selectivity assay for APJ receptor antagonist project, cell-based, uHTS hits (AID 463214);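 note: antagonist potency against angiotensin II stimulated AT1 response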", "format": "functional"}, "[2]": {"target": "Endoplasmic reticulum aminopeptidase 1 (Homo sapiens, UniProt Q9NZ08)", "test": "ERAP1 aminopeptidase inhibitors, dose response, biochemical, cherry-pick, set 2, plate reader (AID 743314)"}}, "note": "The source made the active and inactive calls."}
{"molecule": "COc1cccc2c1C(=O)c1c(O)c3c(c(O)c1C2=O)C[C@](O)(C(C)=O)C[C@H]3O[C@@H]1C[C@H](N)[C@H](O)[C@H](C)O1", "values": [{"measurement": "AC50", "setting": "Cytochrome P450 2C9", "value": "inactive"}, {"measurement": "AC50", "setting": "Cytochrome P450 2C19", "value": "inactive"}]}
{"molecule": "Cn1ncnc2c(=O)n(C)c(=O)nc1-2", "values": [{"measurement": "EC50", "setting": "Protein RecA", "value": "active: < 0.018 µM"}]}
{"molecule": "Cc1ccnc(SCc2cc(=O)c(OC(=O)c3ccc(Cl)c([N+](=O)[O-])c3)co2)n1", "values": [{"measurement": "EC50", "setting": "Beta-galactosidase", "value": "inactive: > 40 µM"}, {"measurement": "IC50", "setting": "[1]", "value": "> 40 µM (not active)"}]}
{"molecule": "O=c1ccc2ccc(O)cc2o1", "note": "[UMBELLIFERONE]", "values": [{"measurement": "AC50", "setting": "[2]", "value": "active: 12.1 µM"}]}
